Measurements published in ChEMBL document CHEMBL6092185, “Discovery of glycosidated glycyrrhetinic acid derivatives: Natural product-based soluble epoxide hydrolase inhibitors” (Eur J Med Chem, 2024).

Columns and labels:
Type in all cases: functional, organism-based
Mus musculus [1] = test: Analgesic activity in BALB/c mouse nodel of acetic acid-induced writhing at 20 mg/kg, IG measured for 30 mins
Mus musculus [2] = test: Anti-inflammatory activity in CD-1 mouse model of acute pancreatitis assessed as decrease in total histopathological score at 10 mg/kg, ip administered 0.5 to 2.5 hrs post-cerulein administration measured after 6 hrs post-cerulein administration by H and E staining based analysis; settings: time 0.5-5.5 hrs
Mus musculus [3] = test: Anti-inflammatory activity in CD-1 mouse model of acute pancreatitis assessed as decrease in cerulein-induced inflammation at 10 mg/kg, ip administered 0.5 to 2.5 hrs post-cerulein administration measured after 6 hrs post-cerulein administration by H and E staining based analysis; settings: time 0.5-5.5 hrs
Mus musculus [4] = test: Anti-inflammatory activity in CD-1 mouse model of acute pancreatitis assessed as decrease in plasma IL-6 level at 10 mg/kg, ip administered 0.5 to 2.5 hrs post-cerulein administration measured after 6 hrs post-cerulein administration by ELISA; settings: time 0.5-5.5 hrs
Mus musculus [5] = test: Anti-inflammatory activity in CD-1 mouse model of acute pancreatitis assessed as increase in ratio of 8,9-EET to DHET level in pancreas at 10 mg/kg, ip administered 0.5 to 2.5 hrs post-cerulein administration measured after 6 hrs post-cerulein administration by UPLC-MS/MS analysis; settings: time 0.5-5.5 hrs
Mus musculus [6] = test: Anti-inflammatory activity in CD-1 mouse model of acute pancreatitis assessed as increase in ratio of 11,12-EET to DHET level in pancreas at 10 to 20 mg/kg, ip administered 0.5 to 2.5 hrs post-cerulein administration measured after 6 hrs post-cerulein administration by UPLC-MS/MS analysis; settings: dose 10-20 mg/kg, time 0.5-5.5 hrs
Mus musculus [7] = test: Anti-inflammatory activity in CD-1 mouse model of acute pancreatitis assessed as increase in ratio of 8,9-EET to DHET level in plasma at 10 mg/kg, ip administered 0.5 to 2.5 hrs post-cerulein administration measured after 6 hrs post-cerulein administration by UPLC-MS/MS analysis; settings: time 0.5-5.5 hrs
Mus musculus [8] = test: Anti-inflammatory activity in CD-1 mouse model of acute pancreatitis assessed as increase in ratio of 11,12-EET to DHET level in plasma at 10 mg/kg, ip administered 0.5 to 2.5 hrs post-cerulein administration measured after 6 hrs post-cerulein administration by UPLC-MS/MS analysis; settings: time 0.5-5.5 hrs
Mus musculus [9] = test: Anti-inflammatory activity in CD-1 mouse model of acute pancreatitis assessed as decrease in cerulein-induced parenchymal atrophy at 10 mg/kg, ip administered 0.5 to 2.5 hrs post-cerulein administration measured after 6 hrs post-cerulein administration by H and E staining based analysis; settings: time 0.5-5.5 hrs
Mus musculus [10] = test: Anti-inflammatory activity in CD-1 mouse model of acute pancreatitis assessed as decrease in cerulein-induced edema at 10 mg/kg, ip administered 0.5 to 2.5 hrs post-cerulein administration measured after 6 hrs post-cerulein administration by H and E staining based analysis; settings: time 0.5-5.5 hrs
Mus musculus [11] = test: Anti-inflammatory activity in CD-1 mouse model of acute pancreatitis assessed as decrease in plasma TNF-alpha level at 10 mg/kg, ip administered 0.5 to 2.5 hrs post-cerulein administration measured after 6 hrs post-cerulein administration by ELISA; settings: time 0.5-5.5 hrs
Mus musculus [12] = test: Anti-inflammatory activity in CD-1 mouse model of acute pancreatitis assessed as increase in ratio of 14,15-EET to DHET level in plasma at 10 mg/kg, ip administered 0.5 to 2.5 hrs post-cerulein administration measured after 6 hrs post-cerulein administration by UPLC-MS/MS analysis; settings: time 0.5-5.5 hrs
Mus musculus [13] = test: Anti-inflammatory activity in CD-1 mouse model of acute pancreatitis assessed as increase in ratio of 14,15-EET to DHET level in pancreas at 10 to 20 mg/kg, ip administered 0.5 to 2.5 hrs post-cerulein administration measured after 6 hrs post-cerulein administration by UPLC-MS/MS analysis; settings: dose 10-20 mg/kg, time 0.5-5.5 hrs

SMILES	Activity (Mus musculus [1])	Activity (Mus musculus [2])	Activity (Mus musculus [3])	Activity (Mus musculus [4])	Activity (Mus musculus [5])	Activity (Mus musculus [6])	Activity (Mus musculus [7])	Activity (Mus musculus [8])	Activity (Mus musculus [9])	Activity (Mus musculus [10])	Activity (Mus musculus [11])	Activity (Mus musculus [12])	Activity (Mus musculus [13])
CC1(C)[C@@H](O[C@@H]2O[C@H](CO)[C@@H](O)[C@H](O)[C@H]2O)CC[C@]2(C)[C@H]3C(=O)C=C4[C@H]5C[C@@](C)(CNC(=O)NCC6CCOCC6)CC[C@]5(C)CC[C@@]4(C)[C@]3(C)CC[C@@H]12	Active; Outperformed Both Celecoxib And Ec5026	–	–	–	–	–	–	–	–	–	–	–	–
CC1(C)[C@@H](O[C@H]2O[C@H](CO)[C@@H](O)[C@H](O)[C@@H]2O)CC[C@]2(C)[C@H]3C(=O)C=C4[C@H]5C[C@@](C)(CNC(=O)NCC6CCOCC6)CC[C@]5(C)CC[C@@]4(C)[C@]3(C)CC[C@@H]12	Active; Exhibited Most Remarkable Effect; Outperformed Both Celecoxib And Ec5026	Active	Active	Active	Active	Active	Active	Active	Active	Active	Active	Active	Active
CC1(C)[C@@H](O[C@H]2OC[C@@H](O)[C@@H](O)[C@@H]2O)CC[C@]2(C)[C@H]3C(=O)C=C4[C@H]5C[C@@](C)(CNC(=O)NCC6CCOCC6)CC[C@]5(C)CC[C@@]4(C)[C@]3(C)CC[C@@H]12	Active; Outperformed Both Celecoxib And Ec5026	–	–	–	–	–	–	–	–	–	–	–	–

Active and inactive are the calls of the source. The rule behind the calls is not given here.
